## scFv variants of Ab-14 (heavy chain) against a SARS-CoV-2 spike peptide

Values reported by Li et al. 2023, doi:10.1038/s41467-023-39022-2 (FLAb copy).

The target is the same throughout: PDVDLGDISGINAS, from the HR2 region of SARS-CoV-2 spike.

Each scFv is VH, a (GGGGS)3 linker, VL, as in the parent Ab-14, and differs from it in the CDRs of the heavy chain only.
VH: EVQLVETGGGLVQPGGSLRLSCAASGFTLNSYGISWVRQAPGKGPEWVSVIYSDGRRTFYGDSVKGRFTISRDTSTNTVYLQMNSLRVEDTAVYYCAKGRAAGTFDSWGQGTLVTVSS
VL: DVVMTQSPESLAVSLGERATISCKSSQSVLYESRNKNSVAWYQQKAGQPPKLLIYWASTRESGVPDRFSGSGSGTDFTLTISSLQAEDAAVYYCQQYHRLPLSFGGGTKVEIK

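The parent was found by panning a naive human phage display library on the peptide. The variants were designed computationally from a first round of random CDR variants and then made and measured. Group labels follow the data file (Ctrl: baseline library sampled from a position-specific scoring matrix, with some repeated check sequences; En: ensemble of fine-tuned language models; GP: Gaussian process model; GPLM: also part of the Gaussian process libraries; HC: hill climbing; Gen: genetic algorithm; Gibbs: Gibbs sampling; a sequence that several methods proposed may carry one label only). In AlphaSeq, yeast of one mating type display the scFv and yeast of the other type display the target. The frequency of each diploid, read from paired DNA barcodes, reflects how well the two displayed proteins bind. Read counts were normalised to the haploid input and turned into Kd by a linear fit to BCL2-family pairs of known affinity, for each replicate. The assay was run in six technical replicates.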

Variants are written as CDR1, CDR2 and CDR3 of the heavy chain (limits as in the source). Parent: GFTLNSYGIS, VIYSDGRRTFYGDSVK, GRAAGTFDS. Affinities are written as log10 Kd with Kd in nM; a lower number is a better binder. "ND" marks a missing value. The strain was present, yet no cells mated with the target were sequenced in that replicate, which points to weak or no binding. The authors averaged sequences with at least three values out of six and counted those with two or fewer as poor binders. Values of this round are not directly comparable with the first-round values of the same sequences. Of ten entries with the parent sequence, four were seen in most replicates (averages 0.34 to 2.37), three in one and three in none, so single entries are noisy. Background: pairings of all heavy chain designs with three empty control strains gave a value in 1% of cases (median 2.08, 5th percentile 0.84). Values in that range, when seen in few replicates, are hard to tell from nonspecific mating.

CDR-H1	CDR-H2	CDR-H3	group	log10 Kd (nM) by replicate
GFNLNEYGIS	VIYADGRRTFYTDDVK	GELAGTFDL	En_HC	-0.61 / -0.74 / -0.57 / -0.74 / -0.71 / -0.36
GFTLNSYGIS	VIYSDGLRTFYGDSVK	GHEAGTFDL	Ctrl	0.47 / 0.66 / 0.74 / 0.15 / 0.77 / 0.49
GFTLNSYGIS	VIYSDGRRTFYDDSVK	GTNAGTFDS	GP_HC	1.01 / 0.59 / 1.63 / 0.41 / 0.48 / 0.33
GPSIDEYGIS	VIYADGIRESYNDNVK	GNTGGAFDV	En_Gibbs	ND / ND / ND / ND / ND / ND
GFDLEEYGVS	VIYADGMRSQYIDAVK	GIIVDNVIT	En_Gibbs	ND / ND / ND / ND / ND / ND
GFNLDEYGIS	VIYADGRRTFYQDSVK	GEVAGTFDK	En_HC	-0.01 / -0.72 / -0.10 / -0.49 / -0.43 / -0.14
GFDLDEYGIS	VIYADGMRTAYADDVK	GQNAGTFDV	En_Gen	-0.46 / -0.37 / 0.16 / -0.47 / -0.28 / -0.26
GFTLNSYGIS	VIYSDGQRTFYIDSVK	GRVAGTFDT	GP_Gibbs	ND / ND / ND / ND / ND / ND
GFTLNEYGIS	VIYSDGRRTFYGDSVK	GRAPGTFDS	Ctrl	0.80 / 0.67 / 0.46 / 0.41 / 0.44 / 0.89
MFSLNSYGIS	VIYADGRRTFYGDSVK	GEAAGTFDS	GP_Gibbs	1.89 / ND / ND / 0.55 / ND / 2.04
GMDLNEYGIS	VIYADGRRAATINQVK	GSNSDTFSL	En_Gibbs	ND / ND / ND / ND / ND / ND
GFNLDEYGIS	VIYADGRRTAYKDTVK	GVRTWEFDL	En_Gibbs	ND / ND / ND / ND / ND / ND
GHTLESYGIT	VIYSDGRRTFYGDAVK	GRRAGTFDS	Ctrl	ND / ND / ND / ND / ND / ND
GEDLLEIGIS	VIYADGSRVAYTNAVK	GNEAGVFDL	En_Gibbs	ND / ND / ND / ND / ND / ND
GFTLNDYGIS	VIYSDGRRTFYGDSVK	GRAAGTFRI	GP_HC	ND / ND / ND / ND / ND / ND
GFDLNEYGIS	VIYADGMRTAYADSVK	GEVAGTFDV	En_Gen	-0.34 / -0.20 / -0.42 / -0.56 / -0.59 / -0.29
GFTLNSYGIS	VIYSDGRRTFYIDSVK	GRWAGTFDS	GP_HC	ND / ND / ND / ND / 1.94 / ND
GFTLMSYGIS	VIYSDGRRTFYVDSVK	GQLAGTFDS	GPLM_HC	ND / ND / ND / ND / ND / ND
GFDLNEYGIS	VIYADGMRTAYSDDVK	GNVAGTFDL	En_Gen	0.15 / -0.40 / -0.25 / -0.27 / -0.12 / -0.38
GFDLNEYGIS	VIYADGVRTAYADDVK	GETAGTFDV	En_Gen	0.10 / -0.66 / -0.74 / -0.46 / -0.34 / -0.46
GFTLNSYGIS	VIYSDGMRTFYADSVK	GRTAGTFDS	GPLM_Gen	0.24 / 0.15 / 0.39 / 0.45 / 0.56 / 0.45
GFSLNEYGIS	VIYADGKRNFYADSVK	GLISGFFDI	En_Gibbs	ND / ND / 2.13 / ND / ND / ND
GFTLNSYGIS	VIYSDGRRTFYDDSVK	GTVAGTFDS	GP_HC	1.75 / 0.53 / 0.39 / 0.96 / 0.86 / 2.24
TFQINSYGIS	VIYSDGRRLFYSDSVK	GAEAGTFDS	Ctrl	ND / ND / ND / ND / ND / ND
GFVLNSYGIS	VIYSDGRRTFYADNVK	GQTAGTFDS	GP_Gibbs	ND / 0.27 / 1.76 / 1.83 / 0.30 / 2.31
EFDLNNYGIS	VIYADGLRTQYETSVK	GDVAGTFVS	En_Gibbs	1.80 / ND / ND / 2.24 / ND / ND
GFSINEYGIS	VIYADGMRTAYVESVK	GTIDEDFNT	En_Gibbs	0.24 / 1.14 / -0.03 / -0.16 / 0.63 / 0.26
GFDLDEYGIS	VIYADGKRTAYADNVK	GEVAGTFDV	En_Gen	-0.72 / -0.61 / -0.48 / -0.66 / -0.70 / -0.58
GRTLNSYGIS	VIYSDGRRTFYGDSVR	GRAAGTFDS	Ctrl	ND / ND / ND / ND / ND / ND
GFNLNSYGIS	VIYSDGRRTFYQDNVK	GRTAGTFDS	GP_Gibbs	1.57 / 0.35 / 1.16 / 1.04 / 0.26 / 0.69
GFDLEEYGIS	VIYADGRRTFYSDSVK	GEAAGTFDE	En_HC	-0.07 / 0.27 / 0.51 / -0.25 / 0.00 / 0.82
GFPLNEYGIS	VIYADGRRTFYGDSVK	GNAAGTFDS	GP_HC	1.08 / 1.07 / 1.65 / 1.11 / 1.36 / 1.15
GFDLNEYGIS	VIYADGRRTFYTDSVK	GANAGTFDT	En_HC	-0.68 / -0.43 / -0.82 / -0.74 / -0.72 / -0.72
GFTLNSYGIS	VIYSDGRRTFYGDSVK	GSAIGTFDS	Ctrl	ND / ND / ND / ND / ND / ND
GFSLNMYGIS	VIYSDGRRTFYIDSVK	GNAAGTFDS	GP_Gibbs	0.92 / 1.51 / 0.56 / 0.46 / 0.82 / 0.94
GFDLNEYGIS	VIYADGLRTSYADSVK	GQNAGTFDM	En_HC	-0.23 / -1.20 / -1.08 / ND / -0.39 / -0.60
GFDLDEYGIS	VIYADGMRTAYADDVK	GNEAGTFDV	En_Gen	0.03 / 0.73 / 0.28 / 0.72 / 0.97 / 0.85
GFTLSEYGIS	VIYSDGRRTFYNDSVK	GRAHGLFDV	Ctrl	ND / ND / ND / ND / ND / ND
GDSLDEYGIS	VIYADGQRVQYVDPVK	GEQAGNVDV	En_Gibbs	ND / ND / ND / ND / ND / ND
GFTLNQYGIS	VIYADGRKTFYSDSVV	GRAAGGFDS	Ctrl	ND / ND / ND / ND / 2.68 / ND
GFDLNEYGIS	VIYADGMRTAYVDDVK	GENAGTFDQ	En_Gen	ND / ND / ND / 1.62 / 1.47 / 1.98
GFNLDEYGIS	VIYADGMRRAYVDEVK	GYHSDVQLM	En_Gibbs	ND / ND / ND / ND / ND / ND
GFWLNSYGIS	VIYSDGRRTFYTDSVK	GQTAGTFDS	GP_Gibbs	1.67 / 1.63 / 1.99 / 1.70 / 1.91 / 1.80
GFTLNMYGIS	VIYSDGRRTFYGDSVK	GRAAGTAHS	Ctrl	ND / ND / ND / ND / ND / ND
GATLNSYGIS	VIYSDGRRTFYGDSVR	GRQAGTFDS	Ctrl	ND / ND / ND / ND / 1.87 / ND
GFSLNNYGIS	VIYSDGRRTFYGDSVK	GMAAGTFDS	GPLM_Gen	1.11 / 1.22 / 0.42 / 0.66 / 0.25 / 1.78

Picked from the list: the 7 lowest averages where every replicate gave a value.

CDR-H1,CDR-H2,CDR-H3,group,log10 Kd (nM) by replicate
GFDLNEYGIS,VIYADGRRTFYTDSVK,GANAGTFDT,En_HC,-0.68 / -0.43 / -0.82 / -0.74 / -0.72 / -0.72
GFDLDEYGIS,VIYADGKRTAYADNVK,GEVAGTFDV,En_Gen,-0.72 / -0.61 / -0.48 / -0.66 / -0.70 / -0.58
GFNLNEYGIS,VIYADGRRTFYTDDVK,GELAGTFDL,En_HC,-0.61 / -0.74 / -0.57 / -0.74 / -0.71 / -0.36
GFDLNEYGIS,VIYADGVRTAYADDVK,GETAGTFDV,En_Gen,0.10 / -0.66 / -0.74 / -0.46 / -0.34 / -0.46
GFDLNEYGIS,VIYADGMRTAYADSVK,GEVAGTFDV,En_Gen,-0.34 / -0.20 / -0.42 / -0.56 / -0.59 / -0.29
GFNLDEYGIS,VIYADGRRTFYQDSVK,GEVAGTFDK,En_HC,-0.01 / -0.72 / -0.10 / -0.49 / -0.43 / -0.14
GFDLDEYGIS,VIYADGMRTAYADDVK,GQNAGTFDV,En_Gen,-0.46 / -0.37 / 0.16 / -0.47 / -0.28 / -0.26